Binding of CDR-mutated scFvs to a peptide of the spike HR2 region

Target: peptide PDVDLGDISGINAS, taken from heptad repeat 2 (HR2) of SARS-CoV-2 spike.

Each scFv is VH, a (GGGGS)3 linker, VL, as in the parent Ab-14, and differs from it in the CDRs of the heavy chain only.
VH: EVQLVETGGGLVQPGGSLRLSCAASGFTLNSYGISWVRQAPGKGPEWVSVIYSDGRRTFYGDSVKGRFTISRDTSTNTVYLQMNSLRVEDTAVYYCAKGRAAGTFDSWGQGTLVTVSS
VL: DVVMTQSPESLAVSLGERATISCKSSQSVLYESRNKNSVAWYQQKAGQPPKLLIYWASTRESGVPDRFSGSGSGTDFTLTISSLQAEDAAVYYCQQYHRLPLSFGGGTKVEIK

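The variants were designed computationally from a first round of random CDR variants and then made and measured. Group labels follow the data file (Ctrl: baseline library sampled from a position-specific scoring matrix, with some repeated check sequences; GPLM: also part of the Gaussian process libraries; HC: hill climbing; a sequence that several methods proposed may carry one label only). The assay is AlphaSeq: two haploid yeast populations carry antibody and antigen on their surface. Mating (16 h, 30 °C) was followed by selection of diploids and sequencing of their barcodes. Scores were corrected for input abundance and mapped to Kd with protein pairs of known affinity run in the same pool. Each pool was mated in six replicate cultures.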

The whole VH of each variant is written out.
Affinities are written as log10 Kd with Kd in nM; a lower number is a better binder.
"n.d." means that the variant was in the library but no mating with the target was seen in that replicate; the authors take this as a sign of poor binding, and no number exists.
Background: pairings of all heavy chain designs with three empty control strains gave a value in 1% of cases (median 2.08, 5th percentile 0.84). Values in that range, when seen in few replicates, are hard to tell from nonspecific mating. For each scFv, signals with the empty controls are counted beside the result, with their mean in brackets.
A sequence measured in both rounds can read differently, since the two assays cover different ranges.
Of ten entries with the parent sequence, four were seen in most replicates (averages 0.34 to 2.37), three in one and three in none, so single entries are noisy.
In the paper, a design with two or fewer of six values counts as a poor binder.
Some sequences occur more than once in the pool; their replicates are listed entry by entry, parted by semicolons.

VH | group | log10 Kd (nM) by replicate | signal with controls
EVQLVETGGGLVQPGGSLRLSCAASGITLNDYGISWVRQAPGKGPEWVSVIYSDGRRTFYGDNVKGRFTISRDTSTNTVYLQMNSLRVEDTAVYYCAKGRAAGIFDSWGQGTLVTVSS | Ctrl | n.d. / n.d. / n.d. / n.d. / n.d. / n.d. | 0 of 18
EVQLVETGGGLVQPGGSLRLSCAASGFTLNQYGIHWVRQAPGKGPEWVSVIYSDGRRTFYADSVKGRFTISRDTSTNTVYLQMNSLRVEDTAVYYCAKGRAAGTFDSWGQGTLVTVSS | Ctrl | 0.69 / 1.12 / 1.11 / 0.79 / 1.15 / 0.78 | 1 of 18 (1.79)
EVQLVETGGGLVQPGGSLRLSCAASGFQLNSYGISWVRQAPGKGPEWVSVIYSDGRRTFYGDNVKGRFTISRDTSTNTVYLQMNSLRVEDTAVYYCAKRRAAGTFDSWGQGTLVTVSS | Ctrl | n.d. / n.d. / n.d. / n.d. / n.d. / n.d. | 0 of 18
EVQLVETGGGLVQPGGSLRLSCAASGFTLNMYGISWVRQAPGKGPEWVSVIYSDGRRTFYGDDVKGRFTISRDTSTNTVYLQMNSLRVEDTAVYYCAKGRAAGTFDSWGQGTLVTVSS | Ctrl | n.d. / 2.30 / 1.51 / n.d. / 2.18 / 1.90 | 1 of 18 (3.36)
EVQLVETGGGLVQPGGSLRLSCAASGFTLNSYGISWVRQAPGKGPEWVSVIYADGRRTSYGDSVKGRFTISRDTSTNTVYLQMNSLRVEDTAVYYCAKDRAAGTFDSWGQGTLVTVSS | Ctrl | n.d. / n.d. / n.d. / n.d. / n.d. / n.d. | 0 of 18
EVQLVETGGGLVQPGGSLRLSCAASGFTLNSYGISWVRQAPGKGPEWVSVIYSDGRRTFYADSVKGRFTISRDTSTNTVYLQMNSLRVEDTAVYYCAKDRAAGCFDDWGQGTLVTVSS | Ctrl | n.d. / n.d. / n.d. / n.d. / 1.47 / n.d. | 0 of 18
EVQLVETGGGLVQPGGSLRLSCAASGFTLNSYGISWVRQAPGKGPEWVSVIYSDGYRTFYGDSVKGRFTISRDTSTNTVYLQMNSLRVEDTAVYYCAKGRAAGTFDAWGQGTLVTVSS | Ctrl | n.d. / n.d. / n.d. / n.d. / n.d. / n.d. | 0 of 18
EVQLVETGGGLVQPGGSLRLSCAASGFELLSYGISWVRQAPGKGPEWVSVIYADGRRTHYGDSVKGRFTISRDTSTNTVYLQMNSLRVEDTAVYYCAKGRAAGTFDSWGQGTLVTVSS | Ctrl | 0.90 / 2.08 / 0.71 / 1.46 / 0.93 / 1.20 | 0 of 18
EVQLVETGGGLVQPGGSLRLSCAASGFTLNSYGISWVRQAPGKGPEWVSVIYSDGRRTFYGDSVKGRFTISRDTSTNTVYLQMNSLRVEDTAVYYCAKGEAAATFDSWGQGTLVTVSS | Ctrl | n.d. / 0.88 / n.d. / n.d. / n.d. / n.d. | 0 of 18
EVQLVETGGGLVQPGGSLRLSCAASGFTLNSYGISWVRQAPGKGPEWVSLIYSDGRRTFYGDSVKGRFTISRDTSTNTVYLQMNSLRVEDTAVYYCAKGRVAATFVSWGQGTLVTVSS | Ctrl | n.d. / n.d. / n.d. / n.d. / n.d. / n.d. | 0 of 18
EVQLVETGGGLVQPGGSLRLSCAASGFTLNSYSISWVRQAPGKGPEWVSVIYSDGRRVAYYDSVKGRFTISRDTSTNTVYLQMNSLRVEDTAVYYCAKGRAAGTFDQWGQGTLVTVSS | Ctrl | n.d. / n.d. / n.d. / n.d. / n.d. / n.d. | 0 of 18
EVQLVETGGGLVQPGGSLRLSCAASGFTLNSYGISWVRQAPGKGPEWVSVIYSDGRRTFYGDNVKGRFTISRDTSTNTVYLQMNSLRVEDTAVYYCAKDRLAGTFDSWGQGTLVTVSS | Ctrl | n.d. / n.d. / n.d. / n.d. / n.d. / n.d. | 0 of 18
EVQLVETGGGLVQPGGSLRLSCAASGFNLNEYGISWVRQAPGKGPEWVSVIYSDGRRTAYAGSVKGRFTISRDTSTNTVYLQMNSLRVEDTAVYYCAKGQNAGTFDSWGQGTLVTVSS | Ctrl | 0.52 / 0.59 / 0.39 / 0.18 / 0.40 / 0.45 | 0 of 18
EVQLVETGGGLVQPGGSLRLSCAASGFTVNSYGISWVRQAPGKGPEWVSVIYSDGRRTFYGDSVKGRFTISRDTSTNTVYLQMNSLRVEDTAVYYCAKGRAAGQFDSWGQGTLVTVSS | Ctrl | n.d. / n.d. / n.d. / n.d. / n.d. / n.d. | 0 of 18
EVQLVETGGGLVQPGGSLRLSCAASRFTLNDYGISWVRQAPGKGPEWVSVDYSDGRRTFYGDSVKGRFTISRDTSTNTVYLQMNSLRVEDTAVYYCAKGNAAGTFDSWGQGTLVTVSS | Ctrl | n.d. / n.d. / n.d. / n.d. / n.d. / n.d. | 0 of 18
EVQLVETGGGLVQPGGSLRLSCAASGFTLNEYGISWVRQAPGKGPEWVSVIYSDGERTFYGDSVKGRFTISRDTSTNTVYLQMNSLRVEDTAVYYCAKGGAAGTFDSWGQGTLVTVSS | Ctrl | 1.15 / 0.67 / 0.51 / 0.80 / 0.35 / 1.86 | 1 of 18 (2.02)
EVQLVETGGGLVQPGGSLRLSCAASGFTLNSYGISWVRQAPGKGPEWVSVIYSDGRRTSYSDSVKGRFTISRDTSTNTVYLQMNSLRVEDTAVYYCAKGRAAGTFDSWGQGTLVTVSS | Ctrl+GPLM_HC | n.d. / 0.51 / 1.26 / 1.28 / 0.48 / 0.75; 0.52 / 1.00 / 0.68 / 0.89 / 1.09 / 0.73 | 1 of 36 (3.38)
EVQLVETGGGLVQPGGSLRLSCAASGFTLNSYGISWVRQAPGKGPEWVSVIYSDGRRVAYGRSVKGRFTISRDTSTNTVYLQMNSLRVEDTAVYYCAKGRAAGTNDSWGQGTLVTVSS | Ctrl | n.d. / n.d. / n.d. / 2.82 / n.d. / n.d. | 0 of 18
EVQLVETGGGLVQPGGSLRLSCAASGFTLESYGISWVRQAPGKGPEWVSVIYSDGRRTFYGDDVKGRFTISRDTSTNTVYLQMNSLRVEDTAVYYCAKGTAAGTFDSWGQGTLVTVSS | Ctrl | n.d. / n.d. / n.d. / n.d. / n.d. / n.d. | 0 of 18
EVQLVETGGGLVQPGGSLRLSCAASGFDLNDYGISWVRQAPGKGPEWVSVIYSDGRRCFYGDSFKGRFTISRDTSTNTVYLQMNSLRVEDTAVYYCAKGRAAGDFDSWGQGTLVTVSS | Ctrl | n.d. / n.d. / n.d. / n.d. / n.d. / n.d. | 0 of 18
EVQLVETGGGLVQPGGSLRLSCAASGFTLNSYGISWVRQAPGKGPEWVSVIYSDGRRTFYGDSVKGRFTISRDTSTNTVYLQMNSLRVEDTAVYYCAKGQAAGTNDSWGQGTLVTVSS | Ctrl | n.d. / n.d. / n.d. / n.d. / n.d. / n.d. | 1 of 18 (2.16)
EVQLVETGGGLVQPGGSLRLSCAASGETLNSYGISWVRQAPGKGPEWVSVIYSDGRRTFYGDSVKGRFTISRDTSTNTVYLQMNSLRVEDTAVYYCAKGRAAGTFDAWGQGTLVTVSS | Ctrl | 1.49 / n.d. / n.d. / 1.11 / 1.23 / 1.88 | 0 of 18
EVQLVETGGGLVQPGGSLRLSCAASGFTLNSYGISWVRQAPGKGPEWVSVIYADGRRTFYADSVKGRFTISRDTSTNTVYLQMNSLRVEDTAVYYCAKGRAAGTVDSWGQGTLVTVSS | Ctrl | 1.76 / 1.20 / 1.35 / 1.81 / 0.95 / 1.80 | 0 of 18
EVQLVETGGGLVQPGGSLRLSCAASGLELNDYGISWVRQAPGKGPEWVSVIYSDGRRTFYMDSVKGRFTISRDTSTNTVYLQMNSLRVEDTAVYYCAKGRAADTFDSWGQGTLVTVSS | Ctrl | n.d. / n.d. / n.d. / n.d. / n.d. / n.d. | 0 of 18
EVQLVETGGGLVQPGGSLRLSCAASGFTMNSYGISWVRQAPGKGPEWVSVIYSDGRRTFYGDSVKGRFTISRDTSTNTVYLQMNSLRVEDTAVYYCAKGRAKGTYDSWGQGTLVTVSS | Ctrl | n.d. / 2.08 / n.d. / n.d. / n.d. / n.d. | 0 of 18
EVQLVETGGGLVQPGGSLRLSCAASGFTLNSYGISWVRQAPGKGPEWVSVIYSDGIRTGYGDSVKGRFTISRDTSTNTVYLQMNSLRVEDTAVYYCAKGKAAGTFDSWGQGTLVTVSS | Ctrl | 1.45 / 1.60 / 1.26 / 1.03 / 0.76 / 1.37 | 1 of 18 (2.44)

The last 4 entries again:

VH | group | log10 Kd (nM) by replicate | signal with controls
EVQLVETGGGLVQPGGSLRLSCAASGFTLNSYGISWVRQAPGKGPEWVSVIYADGRRTFYADSVKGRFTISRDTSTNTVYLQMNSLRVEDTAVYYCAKGRAAGTVDSWGQGTLVTVSS | Ctrl | 1.76 / 1.20 / 1.35 / 1.81 / 0.95 / 1.80 | 0 of 18
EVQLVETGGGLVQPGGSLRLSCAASGLELNDYGISWVRQAPGKGPEWVSVIYSDGRRTFYMDSVKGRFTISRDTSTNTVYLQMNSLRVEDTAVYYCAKGRAADTFDSWGQGTLVTVSS | Ctrl | n.d. / n.d. / n.d. / n.d. / n.d. / n.d. | 0 of 18
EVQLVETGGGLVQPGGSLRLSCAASGFTMNSYGISWVRQAPGKGPEWVSVIYSDGRRTFYGDSVKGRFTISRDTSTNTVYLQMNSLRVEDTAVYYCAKGRAKGTYDSWGQGTLVTVSS | Ctrl | n.d. / 2.08 / n.d. / n.d. / n.d. / n.d. | 0 of 18
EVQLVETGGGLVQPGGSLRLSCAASGFTLNSYGISWVRQAPGKGPEWVSVIYSDGIRTGYGDSVKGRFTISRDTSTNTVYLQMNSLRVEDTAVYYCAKGKAAGTFDSWGQGTLVTVSS | Ctrl | 1.45 / 1.60 / 1.26 / 1.03 / 0.76 / 1.37 | 1 of 18 (2.44)

Source: Li et al. 2023 (doi:10.1038/s41467-023-39022-2), MIT Lincoln Laboratory and A-Alpha Bio; data file from the FLAb repository.